Results taken from ChEMBL document CHEMBL1152805, “Dual inhibitors of phosphodiesterase-4 and serotonin reuptake” (J Med Chem, 2009).
pKi: −log10 of the molar value.

By UniProt entry, the sequences of proteins in these tests, tags left out. Where a name states a change or a piece, a line headed by the entry shows the natural chain unless it says otherwise.
UniProt P31645, whole entry: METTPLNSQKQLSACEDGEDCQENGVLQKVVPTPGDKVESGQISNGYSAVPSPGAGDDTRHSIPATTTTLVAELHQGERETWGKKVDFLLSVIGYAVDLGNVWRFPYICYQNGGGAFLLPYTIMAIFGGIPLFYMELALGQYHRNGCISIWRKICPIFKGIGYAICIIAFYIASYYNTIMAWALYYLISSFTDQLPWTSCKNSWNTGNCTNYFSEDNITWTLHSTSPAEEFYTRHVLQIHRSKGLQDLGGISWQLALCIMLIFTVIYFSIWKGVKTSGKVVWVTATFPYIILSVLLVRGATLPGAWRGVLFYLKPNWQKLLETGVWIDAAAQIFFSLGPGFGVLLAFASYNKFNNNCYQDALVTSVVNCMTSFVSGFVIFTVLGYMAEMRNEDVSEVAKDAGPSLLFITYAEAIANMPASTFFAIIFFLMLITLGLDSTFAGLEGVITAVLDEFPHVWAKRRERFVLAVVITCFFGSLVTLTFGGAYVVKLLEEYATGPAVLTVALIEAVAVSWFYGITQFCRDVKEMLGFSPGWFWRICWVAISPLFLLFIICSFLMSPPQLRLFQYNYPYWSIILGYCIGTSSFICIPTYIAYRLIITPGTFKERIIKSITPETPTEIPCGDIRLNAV
UniProt Q08499: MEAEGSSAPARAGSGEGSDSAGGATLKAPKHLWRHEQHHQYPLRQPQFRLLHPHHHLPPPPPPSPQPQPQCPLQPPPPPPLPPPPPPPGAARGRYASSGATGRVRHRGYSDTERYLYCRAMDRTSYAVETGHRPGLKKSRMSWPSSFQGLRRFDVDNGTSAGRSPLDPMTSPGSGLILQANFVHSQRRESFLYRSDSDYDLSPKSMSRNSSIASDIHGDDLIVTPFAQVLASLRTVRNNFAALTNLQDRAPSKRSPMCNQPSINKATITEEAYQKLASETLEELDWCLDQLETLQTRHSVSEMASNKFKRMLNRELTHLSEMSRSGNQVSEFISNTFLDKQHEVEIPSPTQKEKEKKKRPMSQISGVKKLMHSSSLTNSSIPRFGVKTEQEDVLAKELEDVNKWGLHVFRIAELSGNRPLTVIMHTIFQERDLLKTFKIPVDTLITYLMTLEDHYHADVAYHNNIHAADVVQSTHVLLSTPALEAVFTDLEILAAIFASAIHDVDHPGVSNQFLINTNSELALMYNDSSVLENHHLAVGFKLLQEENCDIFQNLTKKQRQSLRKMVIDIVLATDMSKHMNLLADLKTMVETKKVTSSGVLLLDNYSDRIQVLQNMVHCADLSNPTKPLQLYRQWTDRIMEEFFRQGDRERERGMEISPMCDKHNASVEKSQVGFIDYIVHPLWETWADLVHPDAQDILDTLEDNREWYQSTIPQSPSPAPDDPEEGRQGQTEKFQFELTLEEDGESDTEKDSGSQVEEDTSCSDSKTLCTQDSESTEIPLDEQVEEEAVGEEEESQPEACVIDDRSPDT

Experiments:
[1] = molecular target: Sodium-dependent serotonin transporter (Homo sapiens, UniProt P31645); experiment: biochemical; type: cell-based, HEK293
[2] = molecular target: 3',5'-cyclic-AMP phosphodiesterase 4D (Homo sapiens, UniProt Q08499); experiment: Inhibition of human recombinant PDE4D3

SMILES	pKi [1]	pKi [2]
COc1ccc(F)c(CCCC2CCC(CCNCCCCCN3N=C(c4ccc(OC)c(OC)c4)[C@H]4CC=CC[C@H]4C3=O)O2)c1 (mixture of isomers)	6.71	
COc1ccc(C2=NN(CCCCCBr)C(=O)[C@@H]3CC=CC[C@H]23)cc1OC (racemic)		8.64
